One-dose inflammasome screen (PubChem AID 2061109, Seoul National University)
system: mouse macrophages from bone marrow, LPS + nigericin (NLRP3)
compound dose: 5 µM
value: % inhibition of cell death (propidium iodide), 0 = stimulated, 100 = untreated, floor at 0
*: called active, above 70% Part of the library is listed.

{"compound": "CC(C)Cn1c(=O)n(C)c(=O)c2[nH]cnc21", "inhibition [%]": "5.2"}
{"compound": "COC1CCN(C(=O)c2cc(Cc3n[nH]c(=O)c4ccccc34)ccc2F)CC1", "inhibition [%]": "1.0"}
{"compound": "Cc1ccc(-c2nnc(NC(=O)c3ccccc3)s2)cc1", "inhibition [%]": "82.0*"}
{"compound": "Cc1nc(N2CCN(C)CC2)c2oc3ccc(Cl)cc3c2n1", "inhibition [%]": "0.0"}
{"compound": "C[C@H](Nc1ccc(C#N)n(C)c1=O)c1cc2cc(Cl)ccc2[nH]c1=O", "inhibition [%]": "67.4"}
{"compound": "Cc1nc(Nc2ncc(C(=O)Nc3c(C)cccc3Cl)s2)cc(N2CCN(CCO)CC2)n1.O", "inhibition [%]": "9.3"}
{"compound": "N#Cc1c(N)[nH]c2cc(/C=C/c3cccc(F)c3)ccc12", "inhibition [%]": "58.3"}
{"compound": "O=C([O-])c1nc(=O)[nH]c(=O)[nH]1.[K+]", "inhibition [%]": "0.0"}
{"compound": "CCOC(=O)[C@H](CCc1ccccc1)N[C@@H](C)C(=O)N1C(=O)N(C)C[C@H]1C(=O)O.Cl", "inhibition [%]": "0.0"}
{"compound": "CC(C)(C)c1ccc(S(=O)(=O)N=C2C=C(SCC(=O)O)C(=O)c3ccccc32)cc1", "inhibition [%]": "0.0"}
{"compound": "c1ccc(-c2[nH]ncc2-c2ccnc3ccccc23)nc1", "inhibition [%]": "0.0"}
{"compound": "O=C1c2ccccc2C(=O)c2c(O)ccc(O)c21", "inhibition [%]": "10.3"}
{"compound": "O=C1c2ccccc2S(=O)(=O)N1CCCCN1CCN(c2ncccn2)CC1", "inhibition [%]": "33.9"}
{"compound": "O=C(O)c1cc(Oc2ccc([N+](=O)[O-])cc2)cc(Oc2ccc([N+](=O)[O-])cc2)c1", "inhibition [%]": "42.0"}
{"compound": "COc1ccccc1CC(=O)Nc1nc2ccc(C)cc2s1", "inhibition [%]": "0.0"}
{"compound": "CCOC(=O)c1cc(C#N)c(N2CCC(C(=O)NS(=O)(=O)Cc3ccccc3)CC2)nc1C", "inhibition [%]": "59.8"}
{"compound": "CN1CCC(CNc2cc(Cl)nn3c(-c4cc5nc(Nc6ccccc6)[nH]c5cc4F)cnc23)CC1", "inhibition [%]": "0.0"}
{"compound": "Cc1nc2c(=O)n(C)c(=O)nc-2n(C)n1", "inhibition [%]": "11.6"}
{"compound": "Cl.O.O=C1Cc2cc(CCN3CCN(c4nsc5ccccc45)CC3)c(Cl)cc2N1", "inhibition [%]": "0.0"}
{"compound": "CCCC(CCC)C(=O)O", "inhibition [%]": "0.0"}
{"compound": "NCCNc1ncc(C(N)=O)c(Nc2cccc(C(F)(F)F)c2)n1", "inhibition [%]": "0.0"}
{"compound": "COc1cc2nccc(Oc3ccc(NC(=O)Cc4ccc(Cl)c(C(F)(F)F)c4)cc3)c2cc1OC", "inhibition [%]": "70.7*"}
{"compound": "COc1ccc(CCO[C@@H]2CCCC[C@H]2N2CC[C@@H](O)C2)cc1OC.Cl", "inhibition [%]": "73.1*"}
{"compound": "COc1ccc2c(OCc3nnc4ccc(-c5ccccc5)nn34)ccnc2c1", "inhibition [%]": "73.2*"}
{"compound": "O=C(NCCO)c1ccc2c(c1)nc(Nc1cccc(Cl)c1)c1ccncc12", "inhibition [%]": "0.0"}
{"compound": "NC1(C(=O)O)CCCC1", "inhibition [%]": "75.9*"}
{"compound": "O=C(O)c1cccc(Nc2ccc(C(F)(F)F)cc2)c1", "inhibition [%]": "0.0"}
{"compound": "CCCCCCCCCCCCCCCCCCCC(=O)OC", "inhibition [%]": "0.0"}
{"compound": "O=C(Nc1cccnc1)c1cc(C(=O)c2c(F)cccc2Br)c[nH]1", "inhibition [%]": "0.0"}
{"compound": "Cc1nnc(C(=O)NC(C)(C)c2nc(C(=O)NCc3ccc(F)cc3)c(O)c(=O)n2C)o1", "inhibition [%]": "0.0"}
{"compound": "CCNC(=O)N1CCN(CCCC(c2ccc(F)cc2)c2ccc(F)cc2)CC1", "inhibition [%]": "0.0"}
{"compound": "O=S(=O)([O-])O.c1c2c(cc3c1OCO3)-c1cc3ccc4c(c3c[n+]1CC2)OCO4", "inhibition [%]": "69.2"}
{"compound": "NC(=O)[C@H]1CCCc2c1[nH]c1ccc(Cl)cc21", "inhibition [%]": "0.0"}
{"compound": "C#CCOc1ccc(Nc2nc(Nc3ccc(C)c(S(=O)(=O)NC(=O)CC)c3)ncc2F)cc1", "inhibition [%]": "6.2"}
{"compound": "CCOC(=O)N1CCC(NS(=O)(=O)c2ccc(NC(=O)c3ccccc3C)c3ccccc23)CC1", "inhibition [%]": "29.1"}
{"compound": "COc1ccc(C=C2SC(=O)NC2=O)cc1", "inhibition [%]": "0.0"}
{"compound": "COc1ccc(F)cc1C(=O)NCc1ccc(-c2nn([C@@H](C)C(F)(F)F)c(N)c2C(N)=O)cc1", "inhibition [%]": "0.0"}
{"compound": "CN1CCC(COc2cnc(-c3cccc(Cn4nc(-c5cccc(C#N)c5)ccc4=O)c3)nc2)CC1", "inhibition [%]": "10.9"}
{"compound": "Cn1cnc(Cn2c(=O)nc(Nc3cc4cn(C)nc4cc3Cl)n(Cc3cc(F)c(F)cc3F)c2=O)n1", "inhibition [%]": "0.0"}
{"compound": "Cl.NOCC(=O)O.NOCC(=O)O", "inhibition [%]": "0.0"}
{"compound": "Nc1[nH]c(=S)[nH]c(=O)c1N=Cc1ccccc1", "inhibition [%]": "67.3"}
{"compound": "NCCO.O=C(Nc1ccc([N+](=O)[O-])cc1Cl)c1cc(Cl)ccc1O", "inhibition [%]": "0.0"}
{"compound": "C#C[C@]1(CO)O[C@@H](n2cnc3c(N)nc(F)nc32)C[C@@H]1O", "inhibition [%]": "62.3"}
{"compound": "COc1ccc(C(CC(N)=O)N2C(=O)c3ccccc3C2=O)cc1OC1CCCC1", "inhibition [%]": "46.4"}
{"compound": "O=C1C2=C(CCN(Cc3ccccc3)C2)N2CCN=C2N1Cc1ccc(F)cc1F", "inhibition [%]": "0.0"}
{"compound": "CCc1nc2c(C)nc(C)cc2n1-c1ccc(CCNC(=O)NS(=O)(=O)c2ccc(C)cc2)cc1", "inhibition [%]": "0.0"}
{"compound": "Nc1nc2cc(CC[C@H]3C[C@@H](n4ccc5c(N)ncnc54)[C@H](O)[C@@H]3O)ccc2cc1Br", "inhibition [%]": "45.7"}
{"compound": "CNC(=O)c1cc(Oc2ccc(NC(=O)Nc3ccc(Cl)c(C(F)(F)F)c3)cc2)ccn1", "inhibition [%]": "0.0"}
{"compound": "CC#CC(=O)N[C@H]1CCCN(c2c(F)cc(C(N)=O)c3[nH]c(C)c(C)c23)C1", "inhibition [%]": "77.5*"}
{"compound": "Cc1cc(N2CCCCC2)cc(C)c1-c1csc(NC(=O)c2ccncc2)n1", "inhibition [%]": "45.8"}
{"compound": "CCNCc1nc2c(N)nc3ccccc3c2n1CC(C)(C)O", "inhibition [%]": "66.6"}
{"compound": "CC(=O)N1c2ccc(-c3ccc(C(=O)O)cc3)cc2[C@H](Nc2ccc(Cl)cc2)C[C@@H]1C", "inhibition [%]": "27.1"}
{"compound": "CS(=O)(=O)c1ccc(-c2cc(C#N)nn2-c2ccc(F)cc2)cc1", "inhibition [%]": "45.2"}
{"compound": "CC1(C)CCN(CCOc2ccc3[nH]ccc3c2)c2ccc(-c3cccnc3)cc21", "inhibition [%]": "77.4*"}
{"compound": "O=C(NCCCCCCNC(=O)ON=C1CCCCC1)ON=C1CCCCC1", "inhibition [%]": "68.9"}
{"compound": "Nc1ncnc2n[nH]nc12", "inhibition [%]": "0.0"}
{"compound": "Fc1ccc(Nc2nc(Nc3ccc(-c4nc5ccccc5[nH]4)cc3)nc(N3CCOCC3)n2)cc1", "inhibition [%]": "0.0"}
{"compound": "CC(C)=CCC1=CC(=O)c2ccccc2C1=O", "inhibition [%]": "86.8*"}
{"compound": "O=C(Nc1ccc(Cl)cc1)N1CCN(c2cccc3[nH]ccc23)CC1", "inhibition [%]": "20.7"}
{"compound": "CCOc1nc2cccc(C(=O)O)c2n1Cc1ccc(-c2ccccc2-c2nn[nH]n2)cc1", "inhibition [%]": "0.0"}
{"compound": "COc1ccc(NC(=O)c2n[nH]c3ccc(-c4cncc(CN5CCCCC5)c4)cc23)cn1", "inhibition [%]": "59.1"}
{"compound": "Cc1ccc(Cn2nc(CCCc3ccc(OC(C)(C)C(=O)O)cc3)[nH]c2=O)cc1", "inhibition [%]": "51.0"}

7 of the compounds above, restated:

{"compound": "Cc1nc2c(=O)n(C)c(=O)nc-2n(C)n1", "inhibition [%]": "11.6"}
{"compound": "O=S(=O)([O-])O.c1c2c(cc3c1OCO3)-c1cc3ccc4c(c3c[n+]1CC2)OCO4", "inhibition [%]": "69.2"}
{"compound": "Cc1nnc(C(=O)NC(C)(C)c2nc(C(=O)NCc3ccc(F)cc3)c(O)c(=O)n2C)o1", "inhibition [%]": "0.0"}
{"compound": "CCNC(=O)N1CCN(CCCC(c2ccc(F)cc2)c2ccc(F)cc2)CC1", "inhibition [%]": "0.0"}
{"compound": "CCOC(=O)N1CCC(NS(=O)(=O)c2ccc(NC(=O)c3ccccc3C)c3ccccc23)CC1", "inhibition [%]": "29.1"}
{"compound": "CN1CCC(CNc2cc(Cl)nn3c(-c4cc5nc(Nc6ccccc6)[nH]c5cc4F)cnc23)CC1", "inhibition [%]": "0.0"}
{"compound": "Nc1ncnc2n[nH]nc12", "inhibition [%]": "0.0"}